System: Melanoma UISO-Mel-2
Conditions: several concentrations, 24 h

Sequence: VRIKLSTPGVYGVYCE [Plc 70-84]
- dose dependence of cytotoxicity, melanoma UISO-Mel-2: increasing peptide concentrations led to increasing cytotoxicity

— patent publication US9096663B2, “Compositions and methods for treating conditions related to ephrin signaling with cupredoxins and mutants thereof” (The Board of Trustees of the University of Illinois, priority 2001, dated 2015)
